This assay addresses T1, human TREM-1 (triggering receptor expressed on myeloid cells 1), isoform 1 (human, UniProt Q9NP99 21-234).
T1 construct: also called huTREM1; CD354
In words: FACS competition with labelled mAb 170 on Jurkat cells expressing huTREM1.

By UniProt entry, the sequences of proteins in these tests, tags left out. Residues count along the entry.
UniProt Q9NP99, 21-234 limits assumed: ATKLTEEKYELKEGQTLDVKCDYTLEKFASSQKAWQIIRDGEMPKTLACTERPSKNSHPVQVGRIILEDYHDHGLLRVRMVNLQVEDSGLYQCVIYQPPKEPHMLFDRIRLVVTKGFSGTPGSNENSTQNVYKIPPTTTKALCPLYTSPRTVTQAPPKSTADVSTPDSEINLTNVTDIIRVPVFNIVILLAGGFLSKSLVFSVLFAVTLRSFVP

Positions count from the first letter of the chain named.

B1: P1-047320 (antibody, V domains shown)
VH: QVQLVQSGAEVKRPGSSVKVSCKASGGTFSIYVISWVRQAPGQGLEWMGGIIPLFGTPNYAQQFQDRVTITADESTRTAYMELNSLKSEDTAVYYCARGHGPGSSHYSYYGLDVWGQGTTVTVSS
VL: DIQMTQSPTSLSASVGDRVTITCRASQGISSWLAWYQHKPGKAPKSLIYAASSLQSGVPSRFSGSGSGTDFTLTISSLQPEDFATYYCQQYNSYPYTFGQGTKLEIK
With B1, the binding result is reported as “binds”.

B2: P1-047310 (antibody, IgG1, V domains shown)
VH: QVQLVQSGAEVKKPGSSVKVSCKASGGTFSRYAISWVRQAPGQGLEWMGGIIPIFGTSNYAQKFQGRVTIKADESTSTAYMELSSLRSEDTAVYYCARGGNSWTTSLYYYGMDVWGQGTTVTVSS
VL: B1 VL with H38Q, G41E, F71Y, Y96L, Q100G, L104V
On to B2, for which the binding result was “binds”.

B3: P1-047263 (antibody, V domains shown)
VH: QVQLVQSGAEVKKPGASVKVSCKASGYTFPTYDINWVRQATGQGLEWMGWVNPNSGNTGYAQKFQDRVTMTRNTSISTAYMELSSLRSEDTAVYYCASDGLNMVRGVHNYYGMDVWGQGTTVTVSS
VL: B1 VL with H38Q, G41E, Y96P
Take B3: the binding result is given as “binds”.

B4: P1-047306 (antibody, V domains shown)
VH: QVQLVQSGAEVKKPGSSVKVSCKASGGTFSSSAISWVRQAPGQGLEWMGGIIPIFGTANYAQKFQGRVTITADESTSTAYMELSSLRSEDTAVYYCARASQSRSSNYYYYGLDVWGQGTTVTVSS
VL: B1 VL with H38Q, G41E, Y96L, Q100G, L104V
B4: the binding result was “binds”.

B5: P1-047299 (antibody, V domains shown)
VH: QVQLVQSGAEVKKPGSSVKVSCKASGGTFNRYAFSWVRQAPGQGLEWMGGIIPIFGTPNYAQKFQGRVTITADESTSTAYMELSSLISEDTAVYYCASSHFYGSGSSHFYYYGMHVWGQGTTVTVSS
VL: B1 VL with H38Q, G41E, Y96W, L104V
In the case of B5, the binding result was “binds”.

B6: P1-047311 (antibody, IgG1, V domains shown)
VH: B1 VH with R13K, P58A
VL: B1 VL with H38Q, Y96L, Q100G, L104V
In the case of B6, the binding result is on record as “binds”.

B7: P1-047307 (antibody, V domains shown)
VH: B1 VH
VL: B1 VL with H38Q, G41E, Y96L, Q100G, L104V
For B7, the binding result was “binds”.

B8: P1-047319 (antibody, V domains shown)
VH: B1 VH with P58A, Q63K, D66G, R77N, N84S, K87R
VL: B1 VL
On to B8, for which the binding result is “binds”.

B9: P1-047313 (antibody, IgG1, V domains shown)
VH: B1 VH with Q63R, N84S, K87R
VL: B1 VL with S46L, Y96W, L104V
Take B9: the binding result is reported as “binds”.

B10: P1-047300 (antibody, IgG1, V domains shown)
VH: QVQLVQSGAEVKKPGSSVKVSCKASGGTFNRHAISWVRQAPGQGLEWMGGIIPLFGTANYAQKFQGRVTIAADEPTSTTYMELRSLRSEDTAVYYCASSYFYGSGSSNYYYYGLDVWGQGTTVTVSS
VL: B1 VL with H38Q, G41E, Y49H, Y96L, Q100G, L104V
With B10, the binding result is given as “binds”.

B11: P1-047312 (antibody, IgG1, V domains shown)
VH: B1 VH
VL: B1 VL with S46L
Regarding B11, the binding result was “binds”.

B12: P1-047296 (antibody, V domains shown)
VH: B10 VH
VL: B1 VL with H38Q, G41E, Y96I, K103R
Turning to B12, the binding result is listed as “binds”.

B13: P1-047297 (antibody, IgG1, V domains shown)
VH: B10 VH
VL: B1 VL with Y96L, Q100G, L104V
As to B13, the binding result is on record as “binds”.

B14: P1-047294 (antibody, IgG1, V domains shown)
VH: B10 VH with K63E
VL: B1 VL with H38Q, G41E, S65G, Y96L, Q100G, L104V
Regarding B14, the binding result is “binds”.

B15: P1-047289 (antibody, IgG1, V domains shown)
VH: QVQLVQSGAEVKKPGSSVKVSCKASGGTFSSSAISWVRQAPGQGLEWMGGIIPIFGTADSAQKFQGRVTITADESTSTAYMELNSLRSEDTAVYYCAFTPRYRGSSHHYFYALGVWGQGTTVTVSS
VL: B1 VL with H38Q, G41E, Y91F, Y96L, Q100G, L104V
Consider B15, for which the binding result is recorded as “binds”.

B16: P1-047318 (antibody, IgG1, V domains shown)
VH: B1 VH with N84S, K87R
VL: B1 VL with S46L
With B16, the binding result was “binds”.

B17: P1-047302 (antibody, V domains shown)
VH: B10 VH
VL: B1 VL with H38Q, G41E, Y96L, Q100G, L104V
On to B17, for which the binding result is “binds”.

B18: P1-047323 (antibody, IgG1, V domains shown)
VH: QVQLVQSGAEVKKPGSSVKVSCKASGGTFINSEAINWVRQAPGQGLEWMGGIIPIFDITNYAQKFQGRVTITADESMSTAYMELSSLRSEDTAVYYCAKTYYDILTYHYHYGMDVWGQGTTVTVSS
VL: AIQLTQSPSSLSASVGDRVTITCRASQGISSALAWYQQKPGKAPKLLIYDASSLESGVPSRFSGSGSGTDFTLTISSLQPEDFATYYCQQFNSYPITFGQGTRLEIK
Consider B18, for which the binding result is “binds”.

B19: P1-047246 (antibody, V domains shown)
VH: QVQLQESGPGLVKPSETLSLTCTVSGGSITNYYWTWIRQPPGKGLEWIGYIYDSGYTNYNPSLKSRVTLSIDTSKNQFSLKLSSVTAADTAVYYCARGVLWFGELLPLLDYWGQGTLVTVSS
VL: B18 VL with I96Y, R103K
As for B19, the binding result is “binds”.

B20: P1-047239 (antibody, V domains shown)
VH: QVQLVESGGGVVQPGRSLRLSCAATEFTFSNYGMHWVRQAPGKGLEWVAVIWYDGSNKYYADSVKGRFTISRDNSKNTLYLQLNSLSAEDSAVYYCARDGRHYYGSTSYFGMDVWGQGTTVTVSS
VL: B18 VL with I96Y, R103K
In the case of B20, the binding result was “binds”.

B21: P1-047334 (antibody, IgG1, V domains shown)
VH: QVQLVQSGAEVKRPGSSVKVSCKASGGTFSSSAISWVRQAPGQGLEWMGGIIPIFGTTNGAQKFQGRVTITADESTSTAYMELSSLRSEDTAVYYCAAMVRGNYFYFYGMDVWGQGTTVTVSS
VL: B18 VL with D50A, E55Q, F91Y, I96L, Q100G, R103K, L104V
Take B21: the binding result was “binds”.

B22: P1-047328 (antibody, IgG1, V domains shown)
VH: B18 VH
VL: B18 VL with F91Y
B22: the binding result was “binds”.
